From patent US9409908B2 (priority 2012, dated 2016) come the findings set out here.

By UniProt entry, the sequences of proteins in these tests, tags left out.
UniProt P03952, whole entry, looked up: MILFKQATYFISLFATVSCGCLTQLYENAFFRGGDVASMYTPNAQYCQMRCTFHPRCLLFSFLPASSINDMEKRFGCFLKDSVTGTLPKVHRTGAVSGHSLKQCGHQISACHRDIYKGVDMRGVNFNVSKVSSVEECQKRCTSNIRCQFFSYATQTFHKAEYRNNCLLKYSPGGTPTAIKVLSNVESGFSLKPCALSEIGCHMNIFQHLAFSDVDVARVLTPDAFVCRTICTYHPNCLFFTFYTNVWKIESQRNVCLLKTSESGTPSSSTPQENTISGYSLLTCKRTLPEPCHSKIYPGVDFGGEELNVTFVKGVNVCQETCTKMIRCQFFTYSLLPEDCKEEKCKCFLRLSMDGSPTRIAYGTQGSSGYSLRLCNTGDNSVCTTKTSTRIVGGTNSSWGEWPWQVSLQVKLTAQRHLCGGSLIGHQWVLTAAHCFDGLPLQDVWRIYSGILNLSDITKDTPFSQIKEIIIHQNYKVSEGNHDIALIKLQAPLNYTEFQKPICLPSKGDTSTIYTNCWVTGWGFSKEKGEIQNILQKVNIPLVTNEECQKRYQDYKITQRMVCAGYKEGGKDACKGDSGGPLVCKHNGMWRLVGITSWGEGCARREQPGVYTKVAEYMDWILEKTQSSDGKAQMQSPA

The structures appear in SMILES notation.

The experiment has as its target purified human plasma kallikrein (Homo sapiens (Human), UniProt P03952). As to conditions: read-out: Plasma Kallikrein Ki.

On to `C[C@@H]1CCC[C@H](N2CCC(c3c(F)ccc(Cl)c3F)=CC2=O)c2cc(ccn2)-c2c(C#N)cccc2NC1=O` [Example 217], for which the inhibition constant (Ki) is 0.154 µM.
